Read-outs that look alike come from different tables or passages of the source.
Assays:
[1] = molecular target: T1, CRF1R (Homo sapiens, UniProt P34998); assay: CRF1R agonist activity (EC50, Emax), called comparative CRF binding; format: cell-based
T1 sequence (P34998 24-415): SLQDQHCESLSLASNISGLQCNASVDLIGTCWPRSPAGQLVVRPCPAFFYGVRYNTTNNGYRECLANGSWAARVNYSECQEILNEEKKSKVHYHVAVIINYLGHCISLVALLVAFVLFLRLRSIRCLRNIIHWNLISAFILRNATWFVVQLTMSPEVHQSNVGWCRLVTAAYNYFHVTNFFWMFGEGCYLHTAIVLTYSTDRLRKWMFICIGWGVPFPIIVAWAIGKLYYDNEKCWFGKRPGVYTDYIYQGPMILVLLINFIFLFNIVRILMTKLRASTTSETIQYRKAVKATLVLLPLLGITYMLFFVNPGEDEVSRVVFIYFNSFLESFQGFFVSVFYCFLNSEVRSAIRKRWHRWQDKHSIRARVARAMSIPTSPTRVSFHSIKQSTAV
Procedure, shortened: (§1)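 Peptides were applied to cells carrying a single CRFR subtype, then cAMP levels or CRE-driven reporter expression were quantified against vehicle-treated cells.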

[2] = molecular target: T2, CRF2R (Homo sapiens, UniProt Q13324); assay: CRF2R agonist activity (EC50, Emax), called comparative CRF binding; format: cell-based
T2 sequence (Q13324 1-411): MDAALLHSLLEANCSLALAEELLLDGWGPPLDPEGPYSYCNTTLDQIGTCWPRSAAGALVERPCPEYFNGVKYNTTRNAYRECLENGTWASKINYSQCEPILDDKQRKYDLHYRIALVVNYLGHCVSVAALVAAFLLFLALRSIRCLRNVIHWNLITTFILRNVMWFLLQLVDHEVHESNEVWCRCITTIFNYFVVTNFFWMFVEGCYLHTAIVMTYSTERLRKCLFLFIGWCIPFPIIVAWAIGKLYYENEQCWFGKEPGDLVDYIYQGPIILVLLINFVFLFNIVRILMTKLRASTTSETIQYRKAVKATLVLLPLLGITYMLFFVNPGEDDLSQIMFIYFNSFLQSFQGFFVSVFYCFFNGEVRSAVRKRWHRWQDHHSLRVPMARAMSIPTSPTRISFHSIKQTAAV
Procedure, shortened: as §1

| SMILES | EC50 [1] | EC50 [2] | EC50 ([1]; read-out: CRF1R EC50) | EC50 ([2]; read-out: CRF2R EC50) |
| --- | --- | --- | --- | --- |
| CC[C@H](C)[C@H](NC(=O)[C@H](CCC(=O)O)NC(=O)[C@@H](NC(=O)[C@@H](NC(=O)[C@H](CCCCN)NC(=O)[C@H](CCCNC(=N)N)NC(=O)[C@H](CC(C)C)NC(=O)[C@H](CC(C)C)NC(=O)[C@H](CCC(N)=O)NC(=O)[C@H](Cc1ccccc1)NC(=O)[C@@H]1CCCN1C(=O)[C@H](CC(C)C)NC(=O)[C@H](CC(=O)O)NC(=O)[C@@H](NC(=O)[C@H](CO)NC(=O)[C@@H](NC(=O)[C@@H]1CCCN1C(=O)[C@@H]1CCCN1C(=O)CNC(=O)[C@@H]1CCC(=O)N1)[C@@H](C)CC)[C@@H](C)CC)[C@@H](C)O)[C@@H](C)CC)C(=O)N[C@@H](CCC(=O)O)C(=O)N[C@@H](CCCCN)C(=O)N[C@@H](CCC(N)=O)C(=O)N[C@@H](CCC(=O)O)C(=O)N[C@@H](CCCCN)C(=O)N[C@@H](CCC(=O)O)C(=O)N[C@@H](CCCCN)C(=O)N[C@@H](CCC(N)=O)C(=O)N[C@@H](CCC(N)=O)C(=O)N[C@@H](C)C(=O)N[C@H](C(=O)N[C@H](C(=O)N[C@@H](CC(N)=O)C(=O)N[C@@H](C)C(=O)N[C@@H](CCCNC(=N)N)C(=O)N[C@@H](CC(C)C)C(=O)N[C@@H](CC(C)C)C(=O)N[C@@H](CC(=O)O)C(=O)N[C@@H](CCCNC(=N)N)C(=O)N[C@H](C(N)=O)C(C)C)[C@@H](C)O)[C@@H](C)O [compound 321] | ≥ 1000 nM | 19.6 nM | – | – |
| CC[C@H](C)[C@H](NC(=O)[C@@H](NC(=O)[C@H](CC(=O)O)NC(=O)[C@H](CC(C)C)NC(=O)[C@H](CC(C)C)NC(=O)[C@H](CC(C)C)NC(=O)[C@H](CCCNC(=N)N)NC(=O)[C@H](CC(N)=O)NC(=O)[C@H](CC(N)=O)NC(=O)[C@H](C)NC(=O)[C@H](C)NC(=O)[C@H](CCC(N)=O)NC(=O)[C@H](CCC(N)=O)NC(=O)[C@H](CCCCN)NC(=O)[C@H](CCC(=O)O)NC(=O)[C@H](CCCCN)NC(=O)[C@H](CCC(=O)O)NC(=O)[C@H](CCC(N)=O)NC(=O)[C@H](CCCCN)NC(=O)[C@H](CCC(=O)O)NC(=O)[C@@H](NC(=O)[C@H](CCC(=O)O)NC(=O)[C@@H](NC(=O)[C@H](CCSC)NC(=O)[C@H](CCCCN)NC(=O)[C@H](CCCNC(=N)N)NC(=O)[C@H](CC(C)C)NC(=O)[C@H](CC(C)C)NC(=O)[C@H](Cc1c[nH]c2ccccc12)NC(=O)[C@H](Cc1c[nH]cn1)NC(=O)[C@@H]1CCCN1C(=O)[C@H](CC(C)C)NC(=O)[C@H](CC(=O)O)NC(=O)[C@@H](NC(=O)[C@H](CO)NC(=O)[C@@H](NC(=O)[C@@H]1CCCN1C(=O)[C@@H]1CCCN1C(=O)CNC(=O)[C@@H]1CCC(=O)N1)[C@@H](C)CC)[C@@H](C)CC)[C@@H](C)CC)[C@@H](C)CC)[C@@H](C)O)C(N)=O [compound 186] | 323 nM | 25.1 nM | – | – |
| CC[C@H](C)[C@H](NC(=O)[C@@H](NC(=O)[C@H](CC(=O)O)NC(=O)[C@H](CC(C)C)NC(=O)[C@H](CC(C)C)NC(=O)[C@H](CC(C)C)NC(=O)[C@H](CCCNC(=N)N)NC(=O)[C@H](CC(N)=O)NC(=O)[C@H](CC(N)=O)NC(=O)[C@H](C)NC(=O)[C@H](C)NC(=O)[C@H](CCC(N)=O)NC(=O)[C@H](CCC(N)=O)NC(=O)[C@H](CCCCN)NC(=O)[C@H](CCC(=O)O)NC(=O)[C@H](CCCCN)NC(=O)[C@H](CCC(=O)O)NC(=O)[C@H](CCC(N)=O)NC(=O)[C@H](CCCCN)NC(=O)[C@H](CCC(=O)O)NC(=O)[C@@H](NC(=O)[C@H](CCC(=O)O)NC(=O)[C@@H](NC(=O)[C@H](CCSC)NC(=O)[C@H](CCCCN)NC(=O)[C@H](CCCNC(=N)N)NC(=O)[C@H](CC(C)C)NC(=O)[C@H](CC(C)C)NC(=O)[C@H](Cc1c[nH]cn1)NC(=O)[C@H](Cc1ccc(O)cc1)NC(=O)[C@@H]1CCCN1C(=O)[C@H](CC(C)C)NC(=O)[C@H](CC(=O)O)NC(=O)[C@@H](NC(=O)[C@H](CO)NC(=O)[C@@H](NC(=O)[C@@H]1CCCN1C(=O)[C@@H]1CCCN1C(=O)CNC(=O)[C@@H]1CCC(=O)N1)[C@@H](C)CC)[C@@H](C)CC)[C@@H](C)CC)[C@@H](C)CC)[C@@H](C)O)C(N)=O [compound 208] | 64.9 nM | 5.6 nM | – | – |
| CC[C@H](C)[C@H](NC(=O)[C@@H](NC(=O)[C@H](C)NC(=O)[C@H](CC(C)C)NC(=O)[C@H](CC(C)C)NC(=O)[C@H](CC(C)C)NC(=O)[C@H](C)NC(=O)[C@H](CC(N)=O)NC(=O)[C@H](CC(N)=O)NC(=O)[C@H](C)NC(=O)[C@H](C)NC(=O)[C@H](CCC(N)=O)NC(=O)[C@H](CCC(N)=O)NC(=O)[C@H](CCCCN)NC(=O)[C@H](CCC(=O)O)NC(=O)[C@H](CCCCN)NC(=O)[C@H](CCC(=O)O)NC(=O)[C@H](CCC(N)=O)NC(=O)[C@H](CCCCN)NC(=O)[C@H](CCC(=O)O)NC(=O)[C@@H](NC(=O)[C@H](CCC(=O)O)NC(=O)[C@@H](NC(=O)[C@@H](NC(=O)[C@H](CCCCN)NC(=O)[C@H](CCCNC(=N)N)NC(=O)[C@H](CC(C)C)NC(=O)[C@H](CC(C)C)NC(=O)[C@H](CCC(N)=O)NC(=O)[C@H](Cc1ccccc1)NC(=O)[C@@H]1CCCN1C(=O)[C@H](CC(C)C)NC(=O)[C@H](CC(=O)O)NC(=O)[C@@H](NC(=O)[C@H](CO)NC(=O)[C@@H](NC(=O)[C@@H]1CCCN1C(=O)[C@@H]1CCCN1C(=O)CNC(=O)[C@@H]1CCC(=O)N1)[C@@H](C)CC)[C@@H](C)CC)C(C)C)[C@@H](C)CC)[C@@H](C)CC)[C@@H](C)O)C(N)=O [compound 352] | – | – | 780 nM | 8.26 nM |
| CC[C@H](C)[C@H](NC(=O)[C@@H](NC(=O)[C@H](CC(=O)O)NC(=O)[C@H](CC(C)C)NC(=O)[C@H](CC(C)C)NC(=O)[C@H](CC(C)C)NC(=O)[C@H](C)NC(=O)[C@H](CC(N)=O)NC(=O)[C@H](CC(N)=O)NC(=O)[C@H](C)NC(=O)[C@H](C)NC(=O)[C@H](CCC(N)=O)NC(=O)[C@H](CCC(N)=O)NC(=O)[C@H](CCCCN)NC(=O)[C@H](CCC(=O)O)NC(=O)[C@H](CCCCN)NC(=O)[C@H](CCC(=O)O)NC(=O)[C@H](CCC(N)=O)NC(=O)[C@H](CCCCN)NC(=O)[C@H](CCC(=O)O)NC(=O)[C@@H](NC(=O)[C@H](CCC(=O)O)NC(=O)[C@@H](NC(=O)[C@H](C)NC(=O)[C@H](CCCCN)NC(=O)[C@H](CCCNC(=N)N)NC(=O)[C@H](CC(C)C)NC(=O)[C@H](CC(C)C)NC(=O)[C@H](CCC(N)=O)NC(=O)[C@H](Cc1ccccc1)NC(=O)[C@@H]1CCCN1C(=O)[C@H](CC(C)C)NC(=O)[C@H](CC(=O)O)NC(=O)[C@@H](NC(=O)[C@H](CO)NC(=O)[C@@H](NC(=O)[C@@H]1CCCN1C(=O)[C@@H]1CCCN1C(=O)CNC(=O)[C@@H]1CCC(=O)N1)[C@@H](C)CC)[C@@H](C)CC)[C@@H](C)CC)[C@@H](C)CC)[C@@H](C)O)C(N)=O [compound 365] | ≥ 1000 nM | 23.5 nM | – | – |
| CC[C@H](C)[C@H](NC(=O)[C@@H](NC(=O)[C@H](C)NC(=O)[C@H](CC(C)C)NC(=O)[C@H](CC(C)C)NC(=O)[C@H](CC(C)C)NC(=O)[C@H](C)NC(=O)[C@H](CC(N)=O)NC(=O)[C@H](CC(N)=O)NC(=O)[C@H](C)NC(=O)[C@H](C)NC(=O)[C@H](CCC(N)=O)NC(=O)[C@H](CCC(N)=O)NC(=O)[C@H](CCCCN)NC(=O)[C@H](CCC(=O)O)NC(=O)[C@H](CCCCN)NC(=O)[C@H](CCC(=O)O)NC(=O)[C@H](CCC(N)=O)NC(=O)[C@H](CCCCN)NC(=O)[C@H](CCC(=O)O)NC(=O)[C@@H](NC(=O)[C@H](CCC(=O)O)NC(=O)[C@@H](NC(=O)[C@H](CC(C)C)NC(=O)[C@H](CC(C)C)NC(=O)[C@H](CCCNC(=N)N)NC(=O)[C@H](CC(C)C)NC(=O)[C@H](CC(C)C)NC(=O)[C@H](CCC(N)=O)NC(=O)[C@H](Cc1ccccc1)NC(=O)[C@@H]1CCCN1C(=O)[C@H](CC(C)C)NC(=O)[C@H](CC(=O)O)NC(=O)[C@@H](NC(=O)[C@H](CO)NC(=O)[C@@H](NC(=O)[C@@H]1CCCN1C(=O)[C@@H]1CCCN1C(=O)CNC(=O)[C@@H]1CCC(=O)N1)[C@@H](C)CC)[C@@H](C)CC)[C@@H](C)CC)[C@@H](C)CC)[C@@H](C)O)C(N)=O [compound 360] | 157 nM | 6.12 nM | – | – |
| CC[C@H](C)[C@H](NC(=O)[C@H](CCC(=O)O)NC(=O)[C@@H](NC(=O)[C@H](CCSC)NC(=O)[C@H](CCCCN)NC(=O)[C@H](CCCNC(=N)N)NC(=O)[C@H](CC(C)C)NC(=O)[C@H](CC(C)C)NC(=O)[C@H](CCC(N)=O)NC(=O)[C@H](Cc1ccccc1)NC(=O)[C@@H]1CCCN1C(=O)[C@H](CC(C)C)NC(=O)[C@H](CC(=O)O)NC(=O)[C@@H](NC(=O)[C@H](CO)NC(=O)[C@@H](NC(=O)[C@@H]1CCCN1C(=O)[C@@H]1CCCN1C(=O)CNC(=O)[C@@H]1CCC(=O)N1)[C@@H](C)CC)[C@@H](C)CC)[C@@H](C)CC)C(=O)N[C@@H](CCC(=O)O)C(=O)N[C@@H](CCCCN)C(=O)N[C@@H](CCC(N)=O)C(=O)N[C@@H](CCC(=O)O)C(=O)N[C@@H](CCCCN)C(=O)N[C@@H](CCC(=O)O)C(=O)N[C@@H](CCCCN)C(=O)N[C@@H](CCC(N)=O)C(=O)N[C@@H](CCC(N)=O)C(=O)N[C@@H](C)C(=O)N[C@@H](C)C(=O)N[C@@H](C)C(=O)N[C@@H](CC(N)=O)C(=O)N[C@@H](CCCNC(=N)N)C(=O)N[C@@H](CC(C)C)C(=O)N[C@@H](CC(C)C)C(=O)N[C@@H](CC(C)C)C(=O)N[C@@H](CC(=O)O)C(=O)N[C@H](C(=O)N[C@H](C(N)=O)C(C)C)[C@@H](C)O [compound 15] | 85.3 nM | 6.56 nM | – | – |

Source: patent US7192924B2, “Corticotropin releasing factor 2 receptor agonists” (priority 2002, dated 2007)
